Patent publication US11058702B2 (EMEK, Inc., priority 2014, dated 2021)

What was measured:
[1] = tested on: locally advanced rectal cancer; settings: with increased normal tissue complications; cited from earlier work
[2] = mouse, in vivo, po

Row | Molecule | effect on pCR rate when added during pre-operative RT+FP [1] | myelosuppression [2]
1 | cetuximab: humanized monoclonal antibody targeting the epidermal growth factor receptor | without any improvement in pCR rate | 
2 | O=c1ncc(I)cn1[C@H]1C[C@H](O)[C@@H](CO)O1 [IPdR] |  | no myelosuppression
